Screens from PubChem BioAssay.
An excerpt weighted towards active compounds, which were near 2.3% of everything screened.
MC4R barr agon = human MC4R agonism via beta-arrestin; P32245; U2OS MC4R beta-arrestin complementation, luminescence; percent of melanotan II response, DMSO zero; activation, % at 8.9 µM; hit rate 0.98% among 360,000; AID 540308;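 active = activation above a per-plate cutoff, the mean activation of sample wells on that plate plus 3 SD, cut at about 8% in these data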
CendR NRP1 mod = modulators of CendR peptide binding to human neuropilin-1 | O14786 | FAM-RPARPAR peptide binding to NRP-1, fluorescence polarization | inhibition, % at 25 µM | hit rate 0.85% among 360,000 | AID 602438;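 active = inhibition or corrected inhibition above about 18%, plus a signal ratio from 0.5 to 1.5, limit read from the data, passing the limit was not always enough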
ARFGAP1 inh = inhibits rat ARF GTPase activating protein 1 | hit rate 0.26% among 360,000 | inhibition, % at 16.5 µM | Arfgap1-stimulated ARF1 GTP hydrolysis, GDP FP detection | Q62848;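 active = inhibition above a per-plate limit, mean inhibition of low control wells plus 3 SD, cut at about 25% in these data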;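 note: 0% = DMSO wells with enzyme and 100% = wells lacking Arfgap1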
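Material: rat Arfgap1 catalytic domain, aa 1-136; also added: human ARF1(Δ1-17)-GTP substrate; compound dosing: one concentration, 16.5 µM, DMSO 1.26%; incubation: GTP hydrolysis reaction 2 h at 25 °C; measured by: Tracer-displacement fluorescence polarization with EDTA stop, 620/688 nm; evaluation: % inhibition from polarization; repeats: one replicate per compound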
ASAP1 GAP inh = ASAP1 ArfGAP inhibition; hit rate 0.19% among 360,000; inhibition, % at 16.5 µM; ASAP1-stimulated ARF1 GTP hydrolysis, GDP FP detection; Q9ULH1; in the data active = inhibition above about 25%;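 note: 0% = vehicle with enzyme and substrate and 100% = no enzyme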
Yeast UUG start = modulators of start codon recognition fidelity in yeast; AID 602363; hit rate 0.13% among 350,000; activity score, % at 18.7 µM; S. cerevisiae UUG-firefly luciferase reporter, luminescence/redox ratio;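 active = replicate mean at a twofold rise or more, about +100% in these data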;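 note: firefly luciferase made from a UUG start codon reports start codon fidelity; reporter light over untreated wells divided by growth signal over untreated wells; some hits fall short of that in this replicate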
MC4R antagonist = antagonists of human melanocortin 4 receptor (MC4R); P32245; hit rate 0.48% among 360,000; MC4R-expressing cells, MTII-stimulated cAMP, LANCE TR-FRET; inhibition, % at 6.5 µM;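 active = inhibition above its plate's cutoff, the mean of tested wells on that plate plus 3 SD, cut at about 29% in these data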;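 note: 0% = Melanotan II alone and 100% = Melanotan II plus saturating MCL0020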
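Material: human MC4R-expressing U2OS cells. Probe or stimulus: Melanotan II challenge. Dosing: 6.5 µM single dose. Times: 30-min compound, 1-h challenge, 1-h detection, room temperature. Technique: TR-FRET with Eu-cAMP and labeled anti-cAMP, 671 nm. Replication: singlicate.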
ARFGAP1 confirm = rat ARFGAP1 inhibition, confirmed | shares compounds with ARFGAP1 inh | ARFGAP1-stimulated ARF1 GTP hydrolysis, GDP tracer FP | inhibition, % at 16.5 µM | hit rate 30% among 890 | AID 651608;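 active = average inhibition over triplicates above the hit cutoff set in the earlier primary screen, cut at about 25% in these data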;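 note: 0% = Arfgap1 plus ARF1-GTP with DMSO and 100% = wells lacking Arfgap1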
* = called active by the depositor.

Sample of the layout:
COc1ccc(S(=O)(=O)N(C)C[C@@H]2Oc3ccc(NC(=O)Nc4cccc5ccccc45)cc3C(=O)N([C@@H](C)CO)C[C@H]2C)cc1 was read as Yeast UUG start -8.
For COc1cc(C(=O)Nc2ccc3nc(N4CCN(C)CC4)cc(C)c3c2)cc(OC)c1OC the results were MC4R barr agon -1, CendR NRP1 mod 2, ARFGAP1 inh 29*, ASAP1 GAP inh 12, Yeast UUG start -10, MC4R antagonist -7 and ARFGAP1 confirm 25*.
Screening Cc1cc(N2CCN(C)CC2)nc2ccc(NC(=O)c3ccc4c(c3)OCO4)cc12 returned MC4R barr agon -1, CendR NRP1 mod 18, ARFGAP1 inh 5, ASAP1 GAP inh 3, Yeast UUG start 23 and MC4R antagonist 2.

The whole of this part (from the top)
COc1ccc(S(=O)(=O)N(C)C[C@@H]2Oc3ccc(NC(=O)Nc4cccc5ccccc45)cc3C(=O)N([C@@H](C)CO)C[C@H]2C)cc1 was read as Yeast UUG start -8.
For COc1cc(C(=O)Nc2ccc3nc(N4CCN(C)CC4)cc(C)c3c2)cc(OC)c1OC the results were MC4R barr agon -1, CendR NRP1 mod 2, ARFGAP1 inh 29*, ASAP1 GAP inh 12, Yeast UUG start -10, MC4R antagonist -7 and ARFGAP1 confirm 25*.
Screening Cc1cc(N2CCN(C)CC2)nc2ccc(NC(=O)c3ccc4c(c3)OCO4)cc12 returned MC4R barr agon -1, CendR NRP1 mod 18, ARFGAP1 inh 5, ASAP1 GAP inh 3, Yeast UUG start 23 and MC4R antagonist 2.
Screening CNc1nc(-c2c[nH]c3ccccc23)cs1 returned MC4R barr agon -1, CendR NRP1 mod -14, ARFGAP1 inh 31*, ASAP1 GAP inh 10, Yeast UUG start -24, MC4R antagonist -2 and ARFGAP1 confirm 1.
`CN1CCN(CC(=O)Nc2nc(-c3c[nH]c4ccccc34)cs2)CC1` gave MC4R barr agon 0, CendR NRP1 mod -14, ARFGAP1 inh 1, ASAP1 GAP inh 3, Yeast UUG start -13 and MC4R antagonist 8.
`CN(CCO)C1=NS(=O)(=O)c2cc([N+](=O)[O-])ccc21` gave MC4R barr agon -2, CendR NRP1 mod 6, ARFGAP1 inh 30*, ASAP1 GAP inh 4, Yeast UUG start -1, MC4R antagonist 14 and ARFGAP1 confirm -2.
For Cc1ccc(S(=O)(=O)NCCC(=O)Nc2cccc(S(=O)(=O)N3CCCC3)c2)cc1C the results were MC4R barr agon 2, CendR NRP1 mod -6, ARFGAP1 inh 34*, ASAP1 GAP inh -2, MC4R antagonist 10 and ARFGAP1 confirm 2.
C[C@@H]1CN([C@@H](C)CO)C(=O)Cc2cc(NC(=O)C3CC3)ccc2O[C@H]1CN(C)CC1CCCCC1 was read as Yeast UUG start -11.
`CC[C@@]1(O)C(=O)OCc2c1cc1n(c2=O)Cc2cc3c(CN(C)C)c(O)ccc3nc2-1` gave MC4R barr agon -1, CendR NRP1 mod 142, ARFGAP1 inh 25*, ASAP1 GAP inh 24, Yeast UUG start -16, MC4R antagonist -13 and ARFGAP1 confirm 8.
COc1cc(Cl)c(NC2=CC(=O)C(=O)c3ccccc32)c(OC)c1 was read as MC4R barr agon -2, CendR NRP1 mod 0, ARFGAP1 inh 28*, ASAP1 GAP inh 2, Yeast UUG start -20, MC4R antagonist -14 and ARFGAP1 confirm -1.
CN(c1ccc(OCC(=O)Nc2ccc3[nH]c(=O)[nH]c3c2)cc1)S(=O)(=O)c1ccc(Cl)cc1 was read as MC4R barr agon -2, CendR NRP1 mod -6, ARFGAP1 inh 30*, ASAP1 GAP inh 9, Yeast UUG start -1, MC4R antagonist 6 and ARFGAP1 confirm -11.
Screening CCOc1cc(/C=C2\SC(=N)N(c3nonc3N)C2=O)ccc1OCCN1CCOCC1 returned MC4R barr agon 2, CendR NRP1 mod -34, ARFGAP1 inh 32*, ASAP1 GAP inh 23, MC4R antagonist 11 and ARFGAP1 confirm 38*.
`O=C(C[C@H]1CC[C@H]2[C@@H](COC[C@H](O)CN2Cc2ccccc2F)O1)NC1CCC1` gave Yeast UUG start 13.
For O=C(C[C@H]1CC[C@@H](NC(=O)c2ccc3c(c2)OCO3)[C@H](CO)O1)NCc1ccc(Cl)cc1 the results were Yeast UUG start -18.
`Cc1ccc2cc(C)c3nnc(SCC(=O)Nc4nc5c(s4)CCCC5)n3c2c1C` gave MC4R barr agon 2, CendR NRP1 mod -12, ARFGAP1 inh 27*, ASAP1 GAP inh -11, Yeast UUG start -1, MC4R antagonist 2 and ARFGAP1 confirm -7.
`Cc1ccc(C)c2c1cc(C)c1nnc(SCC(=O)Nc3nc4c(s3)CCCC4)n12` gave MC4R barr agon 0, CendR NRP1 mod 7, ARFGAP1 inh 3, ASAP1 GAP inh 5, Yeast UUG start -23 and MC4R antagonist 3.
Screening O=C(Nc1nnc(Cc2ccc([N+](=O)[O-])cc2)s1)Nc1ccccc1F returned MC4R barr agon 2, CendR NRP1 mod -2, ARFGAP1 inh 60*, ASAP1 GAP inh -3, Yeast UUG start -19, MC4R antagonist 5 and ARFGAP1 confirm 19.
Screening C[C@@H]1CCCCO[C@H](CN(C)Cc2ccc(C(=O)O)cc2)[C@H](C)CN([C@@H](C)CO)C(=O)c2cc(NC(=O)Nc3ccc(C(F)(F)F)cc3)ccc2O1 returned MC4R barr agon -1, CendR NRP1 mod -2, ARFGAP1 inh 25*, ASAP1 GAP inh 7, Yeast UUG start 12, MC4R antagonist 0 and ARFGAP1 confirm 0.
`C[C@H](CO)N1C[C@H](C)[C@@H](CN(C)Cc2ccc(C(=O)O)cc2)OCCCC[C@H](C)Oc2ccc(NC(=O)Nc3ccc(C(F)(F)F)cc3)cc2C1=O` gave Yeast UUG start -5.
Screening C[C@H](CO)N1C[C@H](C)[C@@H](CN(C)C(=O)Nc2ccc(C(F)(F)F)cc2)Oc2ccc(NC(=O)Nc3ccccc3)cc2C1=O returned MC4R barr agon -1, CendR NRP1 mod 12, ARFGAP1 inh 30*, ASAP1 GAP inh 15, Yeast UUG start 9, MC4R antagonist 8 and ARFGAP1 confirm 12.
For C[C@@H]1CN([C@@H](C)CO)C(=O)c2cc(NC(=O)Nc3ccc(C(F)(F)F)cc3)ccc2O[C@H]1CN(C)C(=O)Nc1ccccc1 the results were Yeast UUG start 7.
`CCCCNC(=O)C(OC(=O)c1ccccc1)c1ccco1` (stereo unspecified) gave Yeast UUG start -8.
Cc1ccc(C(=O)NCCCNc2ccc(C(F)(F)F)cc2[N+](=O)[O-])cc1 was read as MC4R barr agon 2, CendR NRP1 mod -10, ARFGAP1 inh 25*, ASAP1 GAP inh -11, MC4R antagonist 10 and ARFGAP1 confirm 4.
CO[C@H]1CN(C)C(=O)c2ccc(NC(=O)Nc3cc(F)ccc3F)cc2OC[C@@H](C)NC[C@H]1C was read as Yeast UUG start 8.
`C[C@@H]1CN([C@@H](C)CO)C(=O)Cc2cc(NC(=O)Cc3ccccc3)ccc2O[C@@H]1CN(C)S(C)(=O)=O` gave Yeast UUG start 1.
CCC(=O)Nc1ccc2c(c1)C(=O)N(C)C[C@H](OC)[C@@H](C)CN(CCc1ccccc1)[C@@H](C)CO2 was read as Yeast UUG start -11.
For O=C(C[C@@H]1CC[C@@H]2[C@H](COC[C@H](O)CN2S(=O)(=O)c2ccc(F)cc2)O1)N[C@@H]1CCN(Cc2ccccc2)C1 the results were Yeast UUG start 13.
